{
  "source": "paper PMC6689897",
  "about": "“Drugging an undruggable pocket on KRAS” (Proceedings of the National Academy of Sciences of the …, 2019)",
  "key": {"KRAS": {"tested_on": "KRAS", "assay": "Alpha Screen PPI assays, summary over KRAS interactions (SOS1, CRAF, PI3Kα)", "conditions": "versus 1"}, "NCI-H358 cells [1]": {"tested_on": "NCI-H358 cells", "assay": "Soft agar proliferation assay in low serum", "conditions": "soft agar and low serum conditions"}, "[2]": {"tested_on": "4 BRAF(v600E) cell lines (A375, RKO, Colo 201, SK-MEL-28)", "assay": "2D and 3D proliferation in BRAF V600E control cell lines", "conditions": "low serum, soft agar, or high serum, adherent conditions"}, "NCI-H358 cells [3]": {"tested_on": "NCI-H358 cells", "assay": "pERK quantification (Meso Scale Discovery)", "conditions": "concentrations up to 50 µM, high serum"}, "[4]": {"tested_on": "4 BRAF(v600E) cell lines (A375, RKO, Colo 201, SK-MEL-28)", "assay": "pERK modulation in BRAF V600E control cell lines"}},
  "data": [
    {"compound": "Cn1cnc(Cn2ccc3ccc(CNCc4[nH]c5ccccc5c4[C@@H]4NC(=O)c5ccc(O)cc54)cc32)c1", "values": [
      {"measurement": "weaker inhibition of PPIs of GTP and GDP forms of KRAS than eutomer 1", "setting": "KRAS", "result": 10, "unit": "fold"},
      {"measurement": "antiproliferative effect", "setting": "NCI-H358 cells [1]", "result": "significant antiproliferative effect observed only at 50 µM"},
      {"measurement": "antiproliferative effect", "setting": "[2]", "result": "No antiproliferative effect"},
      {"measurement": "pERK reduction", "setting": "NCI-H358 cells [3]", "result": "no pERK reduction"},
      {"measurement": "inhibition of pERK", "setting": "[4]", "result": "no inhibition of pERK"}
    ]}
  ]
}
